Earlier results as cited in patent publication US6806377B1, “Preparation of metallocenes carrying a cyclopentadiene comprising a basic donor group” (The University of Leeds, priority 1999, dated 2004).

Conditions: background statement on the known anti-tumour drug; cited from earlier work

titanocene dichloride
solubility: low solubility
